Experimental data as given in patent US7495030B2, “(5-(2-hydroxy-4-chlorobenzoyl) aminovaleric acid and salts thereof and compositions containing the same for delivering active agents” (Emisphere Technologies, Inc., priority 2000, dated 2009).

Test: Insulin oral delivery in rats, serum human insulin by ELISA and serum glucose
Conditions: oral dosing with human insulin alone (no delivery agent); previous experiments
Description: Oral dosing (PO) compositions of delivery agent compound and human zinc insulin (minimum 26 IU/mg available from Calbiochem—Novabiochem Corp, La Jolla, Calif.) were prepared in deionized water. […] The solution was vortexed, then heated (about 37° C.) and sonicated. The pH was adjusted to about 7 to 8.5 with NaOH or HCl.
About 1.25 mg insulin from an insulin stock solution (15 mg/ml made from 0.5409 g insulin and […] deionized water, adjusting with HCl and NaOH to pH 8.15 and to obtain a clear solution using […]) was added to the solution and mixed by inverting.
The typical dosing and sampling protocols were as follows. […] A dosing group of five animals was administered one of the dosing solutions. […] The syringe was filled with dosing solution by drawing the solution through the catheter, which was then wiped dry. The catheter was placed down the esophagus leaving 1 cm of tubing past the incisors. Solution was administered by pressing the syringe plunger.
Serum insulin levels were determined with an Insulin ELISA Test Kit (Kit # DSL-10-1600 from Diagnostic Systems Laboratories, Inc., Webster, Tex.), modifying the standard protocol in order to optimize the sensitivity and linear range of the standard curve for the volumes and concentrations of the samples used in the present protocol. […]

## human insulin
  Serum human insulin levels: no measurable levels
